# This is a sample that favours compounds with a hit; in the whole collection about 1.6% have one here.
# CAL PDZ FP-1: untagged CAL PDZ binding inhibitors, primary screen, biochemical, fluorescence polarization, HTS; Golgi-associated PDZ and coiled-coil motif-containing protein (Homo sapiens), Q9HD26; purified CAL PDZ, TMR-peptide fluorescence polarization, 1 h; inhibition, % at 24.9 µM; 0.92% of 300,000 active;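 active = mean inhibition of at least 30% with at least half of replicates also reaching 30%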;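 note: 0% = DMSO neutral control and 100% = excess unlabeled competitor peptide PRC23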
# Vif inh: HIV Vif self-association inhibitors, primary screen, imaging, HEK293T, single point; HEK293T cells, Vif self-association by quenched fluorescence, 24 h; inhibition, % at 7.49 µM; 0.35% of 340,000 active; AID 602346, 2012; in the data active = inhibition above about 50%, passing the limit was not always enough
# ARNT-TACC3 inh: disruptors of ARNT/TACC3 protein interaction, primary screen, biochemical, AlphaScreen, single concentration | AID 623870, 2012 | 0.66% of 390,000 active | AlphaScreen His-ARNT PAS-B/GST-TACC3 binding, luminescence; TACC3 fragment carries E629A point mutation | Transforming acidic coiled-coil-containing protein 3 (Homo sapiens), Q9Y6A5 | inhibition, % at 9.99 µM;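 active = mean inhibition of replicates at least 50% and at least half of replicates each reaching 50%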;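 note: 0% = complete ARNT plus TACC3 wells and 100% = ARNT alone without TACC3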
# PglD inh: C. jejuni PglD acetyltransferase inhibitors, primary screen, biochemical, DTNB colorimetric, single point; UDP-N-acetylbacillosamine N-acetyltransferase PglD (Campylobacter jejuni); purified PglD enzyme, DTNB colorimetric CoA detection; inhibition, % at 12.5 µM; 0.098% of 360,000 active; AID 602405, 2012; in the data active = inhibition above about 16%, passing the limit was not always enough
# UUG fidelity: modulators of start codon recognition fidelity in yeast; activity score, % at 18.7 µM; actives 0.13% (n = 350,000); S. cerevisiae UUG-firefly luciferase reporter, luminescence/redox ratio;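 active = replicate mean at a twofold rise or more, about +100% in these data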;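 note: firefly luciferase made from a UUG start codon reports start codon fidelity; reporter light over untreated wells divided by growth signal over untreated wells; some hits fall short of that in this replicate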
# CAL PDZ FP-2: CAL PDZ peptide-binding inhibitors, primary screen, biochemical, fluorescence polarization, Cer-tagged CAL PDZ, HTS | Golgi-associated PDZ and coiled-coil motif-containing protein (Homo sapiens), Q9HD26 | purified CAL PDZ, TMR-peptide fluorescence polarization, 1 h | inhibition, % at 20 µM | 0.02% of 330,000 active;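 active = highest replicate inhibition of at least 40%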;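 note: plate controls were DMSO neutral control wells for no effect and unlabeled competitor peptide control wells for full effect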
#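 Read-out basis: mP drop reported as inhibition | Assay system: Tagged CAL PDZ protein CerCALP, purified | Benchmarks: Unlabelled peptide for full inhibition, DMSO wells as neutral | Schedule: 1 h incubation at room temperature before polarization reading | Buffer or medium: Sodium phosphate/NaCl buffer pH 7.4 with TCEP, IgG, Thesit | Doses: Single point, 20 µM | Measured by: Fluorescence polarization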
# An asterisk follows results filed as active; . = no result.
item | SMILES | CAL PDZ FP-1 | Vif inh | ARNT-TACC3 inh | PglD inh | UUG fidelity | CAL PDZ FP-2
1 | COC(=O)[C@@H]1[C@@H](CO)[C@@H]2Cn3c(ccc(-c4ccncc4)c3=O)[C@H]1N2CCc1ccccc1 | . | . | -5 | -1 | . | .
2 | C[n+]1c(-c2ccccc2)c2cc(N)ccc2c2ccc(N)cc21 | 2 | 28 | 47* | 2 | -36 | 12
3 | CCOP(=O)(Cc1cc(C(C)=O)c(C)o1)OCC | 0 | 1 | -5 | . | . | 0
4 | CCCC(=O)c1cc(CP(=O)(OCC)OCC)oc1C | . | 50* | . | 3 | -13 | .
5 | COc1ccc2c(c1OC)C(=O)OC2C1c2cc3c(cc2CCN1C)OCO3 (stereo not given) | -3 | 9 | 2 | 5 | 8 | 2
6 | COc1cc(C2c3cc4c(cc3CC3COC(=O)C32)OCO4)cc(OC)c1O (stereo not given) | -4 | 60* | 2 | . | . | -1
7 | COC(=O)[C@@H]1[C@@H](CO)[C@@H]2Cn3c(ccc(-c4ccccc4F)c3=O)[C@H]1N2Cc1ccccc1 | . | . | active | 1 | . | .
8 | O=C(NC1(C(F)(F)F)Oc2ccc(Cl)cc2O1)N1CCC2(CC1)OCCO2 (stereo not given) | -3 | 78* | 1 | 3 | -18 | -2
9 | COC(=O)[C@@H]1[C@@H](CO)[C@@H]2Cn3c(ccc(-c4ccccc4)c3=O)[C@H]1N2CCc1ccccc1 | . | . | -4 | 2 | -5 | .
10 | CC(=O)N1CCCSC1=Nc1ccccc1 | 58* | 12 | -18 | . | . | -1
11 | COC(=O)[C@H]1[C@H](CO)[C@H]2Cn3c(ccc(-c4cccc(F)c4)c3=O)[C@@H]1N2Cc1cccnc1 | . | . | 1 | 5 | . | .
12 | CCCCC(=O)N/N=C/c1c(O)n(Cc2ccco2)c(=O)[nH]c1=O | -2 | 0 | 72* | 5 | -19 | 0

item | SMILES | CAL PDZ FP-1 | Vif inh | ARNT-TACC3 inh | PglD inh | UUG fidelity | CAL PDZ FP-2
13 | CCCCC(=O)N/N=C/c1c(O)n(CCCC)c(=S)[nH]c1=O | . | 3 | 61* | 0 | -22 | -1
14 | O=c1[nH]c(=O)n(-c2cccc3ccccc23)c(O)c1C=NCCCn1ccnc1 | 1 | 13 | -7 | 7 | -6 | 1
15 | CCCCC(=O)N/N=C/c1c(O)n(-c2cccc3ccccc23)c(=O)[nH]c1=O | 5 | -15 | 61* | . | . | 0
16 | O=C(N/N=C/c1c(O)n(Cc2ccco2)c(=O)[nH]c1=O)c1ccccc1O | 6 | -1 | 65* | 2 | -17 | 1
17 | O=c1[nH]c(=O)n(Cc2ccco2)c(O)c1C=NCc1ccco1 | 1 | -3 | -2 | . | . | -2
18 | COC(=O)[C@H]1[C@H](CO)[C@H]2Cn3c(ccc(-c4cncnc4)c3=O)[C@@H]1N2S(=O)(=O)c1ccccc1C | . | . | -2 | 0 | . | .
19 | COC(=O)C[C@H]1CC[C@@H]2NC[C@H](O)COC[C@H]2O1 | . | . | 24 | -3 | . | .
20 | CCCNC(=O)N1[C@@H]2c3ccc(-c4ccccc4OC)c(=O)n3C[C@H]1[C@H](CO)[C@H]2C(=O)OC | . | . | 1 | 1 | . | .
21 | O=C1NC(=O)C(Cc2ccccc2)(Cc2ccccc2)C(=O)N1 | -1 | 0 | -8 | . | . | 0
22 | O=C1NC(=O)C(Nc2ccccc2)C(=O)N1 | -5 | -5 | 33* | 5 | -10 | -2
23 | CCCN1[C@@H]2c3ccc(-c4cccc(C(=O)N(C)C)c4)c(=O)n3C[C@H]1[C@H](CO)[C@H]2C(=O)OC | . | . | 25 | 1 | . | .
24 | CCCC#Cc1ccc([C@H]2[C@H]3CN(C(=O)Cc4ccccn4)CCCCN3[C@H]2CO)cc1 | . | . | 3 | 1 | 3 | .

item | SMILES | CAL PDZ FP-1 | Vif inh | ARNT-TACC3 inh | PglD inh | UUG fidelity | CAL PDZ FP-2
25 | COc1ccc(-c2cc(=NCCCCCC(=O)O)c3cc(C)ccc3o2)cc1 | 0 | 2 | 61* | . | . | -2
26 | COc1ccc(-c2cc(=Nc3cccc(C(=O)O)c3)c3cc(C)ccc3o2)cc1 | -4 | -1 | -15 | . | . | -5
27 | CC(NC(=O)Cc1cccc2ccccc12)C(=O)N1CCC(=O)CC1 (stereo not given) | 47* | . | 3 | . | . | 0
28 | Clc1ccc(C(Cl)(Cl)Cl)c(Cl)c1 | 71* | 23 | . | -2 | 14 | 0
29 | CCn1c(=O)n(CC(=O)N2CCC3(CC2)OCCO3)c(=O)c2ccccc21 | 52* | 19 | 2 | 1 | 0 | -1
30 | O=C(Cc1ccccc1)N1C[C@@H]2[C@H](c3ccccc31)[C@H](CO)N2Cc1ccccc1 | . | . | 9 | 0 | -10 | .
31 | Cc1cc(N(CCCl)CCCl)ccc1C=Cc1ccncn1 | -3 | 77* | -3 | 5 | -11 | 0
32 | Cc1cc(N(CCCl)CCCl)ccc1/C=N/N=C(\N)c1cnccn1 | -3 | -2 | 16 | . | . | 0
33 | CCN1CCN(c2ccc(N)cc2C)CC1 | 0 | 1 | 48* | . | . | 2
34 | O=C(N/N=C/c1c(O)n(Cc2ccc(F)cc2)c(=S)[nH]c1=O)c1ccncc1 | -2 | -3 | 61* | 0 | -12 | 0
35 | CCn1c(O)c(/C=N/NC(=O)c2ccncc2)c(=O)[nH]c1=S | -3 | 4 | . | . | . | -2
36 | CCC(C)n1c(O)c(/C=N/NC(=O)c2ccncc2)c(=O)[nH]c1=S (stereo not given) | . | 7 | 65* | . | . | -1

# Sorted by SMILES length (descending): five of the compounds above
item | SMILES | CAL PDZ FP-1 | Vif inh | ARNT-TACC3 inh | PglD inh | UUG fidelity | CAL PDZ FP-2
34 | O=C(N/N=C/c1c(O)n(Cc2ccc(F)cc2)c(=S)[nH]c1=O)c1ccncc1 | -2 | -3 | 61* | 0 | -12 | 0
26 | COc1ccc(-c2cc(=Nc3cccc(C(=O)O)c3)c3cc(C)ccc3o2)cc1 | -4 | -1 | -15 | . | . | -5
32 | Cc1cc(N(CCCl)CCCl)ccc1/C=N/N=C(\N)c1cnccn1 | -3 | -2 | 16 | . | . | 0
28 | Clc1ccc(C(Cl)(Cl)Cl)c(Cl)c1 | 71* | 23 | . | -2 | 14 | 0
33 | CCN1CCN(c2ccc(N)cc2C)CC1 | 0 | 1 | 48* | . | . | 2

# Next section.
item | SMILES | CAL PDZ FP-1 | Vif inh | ARNT-TACC3 inh | PglD inh | UUG fidelity | CAL PDZ FP-2
37 | COC(=O)[C@@H]1[C@@H](CO)[C@@H]2Cn3c(ccc(C4=CCCCC4)c3=O)[C@H]1N2Cc1cccnc1 | . | . | -10 | 2 | . | .
38 | O=C(O)[C@H]1[C@H](CO)[C@H]2Cn3c(ccc(C4=CCCCC4)c3=O)[C@@H]1N2C(=O)Cc1ccccn1 | . | . | 1 | 3 | . | .
39 | Cc1c(C)c2ccc(OCC(=O)N3CCC(C(=O)O)(c4ccccc4)CC3)cc2oc1=O | 41* | -2 | 24 | 6 | 3 | 0
40 | CCCCCC(=O)N[C@@H](c1ccccc1)[C@@H](O)C(=O)O[C@H]1C[C@@]2(O)[C@@H](OC(=O)c3ccccc3)C3[C@](C)(C(=O)[C@H](O)C(=C1C)C2(C)C)[C@@H](OC1OCC(O)C(O)C1O)C[C@H]1OC[C@@]31OC(C)=O (stereo not given in full) | 4 | 5 | 57* | 1 | -7 | -1
41 | CC(=O)O[C@@]12CO[C@@H]1C[C@H](OC1OCC(O)C(O)C1O)[C@@]1(C)C(=O)[C@H](O)C3=C(C)[C@@H](OC(=O)[C@H](O)[C@@H](NC(=O)c4ccccc4)c4ccccc4)C[C@@](O)([C@@H](OC(=O)c4ccccc4)C12)C3(C)C (stereo not given in full) | 0 | 29 | 4 | 0 | 14 | 0

# Source: PubChem
